This test deals with Melanocyte-stimulating hormone receptor (Mus musculus, UniProt Q01727). The test is described as follows: Agonist activity at mouse melanocortin-1 receptor transfected in HEK293 cells after 6 hrs by beta-galactosidase reporter gene assay. It counts as cell-based. Background: Reporter assays use an easily measured gene product as a stand-in for the process of interest.

The chains behind the UniProt entries cited, without tags or fusion partners. Where a name states a change or a piece, a line headed by the entry shows the natural chain unless it says otherwise.
UniProt Q01727: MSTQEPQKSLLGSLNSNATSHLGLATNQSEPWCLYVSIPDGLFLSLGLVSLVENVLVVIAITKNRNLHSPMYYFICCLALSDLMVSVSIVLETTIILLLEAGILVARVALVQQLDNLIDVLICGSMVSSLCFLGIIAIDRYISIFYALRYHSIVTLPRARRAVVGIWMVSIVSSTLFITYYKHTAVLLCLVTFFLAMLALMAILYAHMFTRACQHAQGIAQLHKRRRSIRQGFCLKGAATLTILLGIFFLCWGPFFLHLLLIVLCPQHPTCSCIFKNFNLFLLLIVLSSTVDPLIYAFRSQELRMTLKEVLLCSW

One may read the EC50 as the concentration giving half of the maximal effect. High values mean a less potent agent, low ones a more potent agent.

The compound `CC(=O)N[C@@H](Cc1cnc[nH]1)C(=O)N[C@H](Cc1ccccc1)C(=O)N[C@@H](CCCN=C(N)N)C(=O)N[C@@H](Cc1c[nH]c2ccccc12)C(N)=O` registered an EC50 of 71 nM.
